Measurements from US20210238187A1, “AZIRIDINE CONTAINING EPOTHILONE ANALOGS, METHODS OF SYNTHESIS, METHODS OF TREATMENT, AND DRUG CONJUGATES” (WILLIAM MARSH RICE UNIVERSITY, priority 2017, published 2021).

Test system: MES SA DX
Assay: Cytotoxicity assay (CellTiter-Glo), MES SA DX
Type: cell-based, human
Conditions: read-out: Cancer cell lines IC50, MES SA DX, MES SA cell line with marked multidrug resistance, 72 hours

CC(=Cc1csc(C)n1)C1CC=CCCCC(C)C(O)C(C)C(=O)C(C)(C)C(O)CC(=O)O1 (stereo not shown) [compound 3, epothilone C, reference compound]
IC50: 62 nM
